Sequences of proteins named here, by UniProt entry; tags and fusion partners are left off.
UniProt P28647, whole entry: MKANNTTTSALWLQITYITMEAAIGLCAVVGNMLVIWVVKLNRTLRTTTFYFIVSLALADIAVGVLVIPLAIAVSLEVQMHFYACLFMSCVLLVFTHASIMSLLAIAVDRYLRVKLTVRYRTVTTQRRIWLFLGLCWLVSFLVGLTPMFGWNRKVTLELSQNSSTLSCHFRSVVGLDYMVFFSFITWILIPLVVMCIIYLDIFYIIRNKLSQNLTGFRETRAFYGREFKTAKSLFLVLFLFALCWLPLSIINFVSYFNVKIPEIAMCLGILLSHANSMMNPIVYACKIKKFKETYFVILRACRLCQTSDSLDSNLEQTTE

In ChEMBL document CHEMBL1135881, “Ribose-modified nucleosides as ligands for adenosine receptors: synthesis, conformational analysis, and biological evaluation of 1'-C-methyl adenosine analogues” (J Med Chem, 2002):

Biological target: Adenosine receptor A3 (Rattus norvegicus, UniProt P28647)
Assay: Affinity to Adenosine A3 receptor of rat testis membrane using [3H](R)-PIA with 150 nM DPCPX

For OC[C@H]1O[C@@H](n2cnc3c(NC4CCCC4)ncnc32)[C@H](O)[C@@H]1O [N6-CYCLOPENTYLADENOSINE], which Ki is on record?
Its Ki is 260 nM.
